Results from patent US12448518B2, “Phthalocyanine dye compounds, conjugates and methods of use thereof” (Rakuten Medical, Inc., priority 2020, dated 2025).

Assay: Thermodynamic solubility in pH 7.4 DPBS, UV quantification
Format: physicochemical
Details: powder at 1 mg/mL, 24 hours, room temperature (25° C.)
Protocol: A working 1 mM stock solution of the test compound in DMSO was prepared from a 10 mM DMSO stock solution. A spectrum scan from 220 nm to 1000 nm of this working solution was performed in a 96-well UV plate to identify the wavelength maxima. […] The selected stock solution was serially diluted in DMSO to confirm linearity and generate a seven to eight-point calibration curve. Of note, only linear points were considered in the curve.
The resulting solution was placed on a RotoSpin™ shaker at 50 rpm for 24 hours at room temperature (25° C.). The solution was then filtered using a 0.45 μm PVDF filter to remove any insoluble fraction of the compound. A 150 μL aliquot of the filtrate was taken for quantification using UV spectroscopy (POLARstar Omega BMG Plate Reader). The optical densities of the standard solutions and the test sample were acquired at the same wavelength maxima. The test sample concentration was calculated from its optical density using the linearity/calibration curve.

## Sodium 2-((19-((dimethyl(3-(tris(3-sulfonatopropyl)ammonio)propyl)silyl)oxy)-19H-6,11-(azeno)-17,21-(azeno[3]episoindoloazeno)benzo[7,8][1,3,5,10]tetraaza[2]silacycloundecino[4,3-a:11,1-a′]diisoindol-19-yl)oxy)-2-methyl-6,6-bis(3-sulfonatopropyl)-9,12-dioxa-6-aza-2-silapentadecan-6-ium-15-oate [Example 21]
  Solubility* (thermodynamic): C (>100 μg/mL)
